Conditions: summary statement

Row | Substance | Toxicity according to the in vivo studies
1 | Ac-D-Trp^1,3,D-Cpa^2,{Lys[n-poly(N-vinyl pyrrolidone-co-maleic acid)-Gly-Phe-Leu-Gly-]}5, [a-Asp(DEA)]6, D-Ala10-GnRH [P-GFLG-1892] | non-toxic
2 | Ac-D-Trp1,3,D-Cpa2,{D-Lys[n-poly-(N-vinylpyrrolidone-co-maleic acid)-Gly-Phe-Leu-Gly]}6. D-Ala10-GnRH [P-GFLG-1544] | non-toxic

From patent US20060189539A1, “Novel GnRH analogues with antitumour effects and pharmaceutical compositions thereof” (priority 1994, published 2006)
